According to US20200093782A1, “ARIANTS OF 2-[6-(4-CHLOROPHENOXY)HEXYL]-OXIRANE-2-CARBOXYLIC ACID FOR USE IN THE TREATMENT, PREVENTION AND/OR AMELIORATION OF BRAIN DISEASES” (Meta-IQ ApS, priority 2016, published 2020):

Test system: Lewis rats
Assay: Rat EAE model (MBP in CFA)
Format: in vivo
Settings: treatment from day 1 or day 5 after induction, compared with placebo
Text: Six week old C57B16 mice were bred and kept at conventional animal facilities at the University of Copenhagen. Female Lewis rats, 2 months old were used for this study.
All animals were weighed and scored clinically on a daily basis. During progression of EAE, leading to motor disabilities, animals had water in a Petri dish and soaked chow for easy intake to ensure sufficient intake of liquid and nutrients. Healthy animals were used as comparison and control of the EAE exposed animals.
In the rat, EAE was induced by intradermal (i.d.) injection of 0.2 mL of an emulsion consisting of 100 μg Myelin Basic Protein Histochem Cell Biol 123 (MBP) from guinea pig (Sigma, USA, M2295) suspended in 0.1 mL of saline (0.9%) and 0.1 mL complete Freund's adjuvant (CFA; Difco, USA, 0638), with the addition of 0.2 μg of Mycobacterium Tuberculosis H37 Ra (Difco, USA, 3114). […]
The animals were monitored daily, weighed and clinically scored according to the following scale (Imrich and Harzer 2001): 0, no clinical signs of EAE; 1, loss of tail tonus; 2, mild paresis in one or both hindlimbs; 3, moderate paresis in one or both hindlimbs; 4, severe paresis or paralysis in one or both hindlimbs; 5, paralysis in one or both hindlimbs and visible paresis in one or both forelimbs, incontinence; 6, moribund. […]

B1: IFNβ: interferon beta (IFNβ), known as the standard therapy for MS (protein, UniProt P01574 22-187, looked up)
Interferon beta: MSYNLLGFLQRSSNFQCQKLLWQLNGRLEYCLKDRMNFDIPEEIKQLQQFQKEDAALTIYEMLQNIFAIFRQDSSSTGWNETIVENLLANVYHQINHLKTVLEEKLEKEDFTRGKLMSSLHLKRYYGRILHYLKAKEYSHCAWTIVRVEILRNFYFINRLTGYLRN
therapeutic effects when started at day 1 or day 5: did not produce therapeutic effects
